Values quoted from earlier work in patent publication US8501472B2, “Compositions and methods for treating and diagnosing pancreatic cancer” (The Regents of the University of Michigan, priority 2007, dated 2013).

Tests used:
pancreatic cancer [1] = details: reference 28
pancreatic cancer [2] = details: reference 28; remark: listed apart in the source

## CC1=C2C[C@H]3[C@@H](CC=C4C[C@@H](O)CC[C@@]43C)[C@@H]2CC[C@]12O[C@@H]1C[C@H](C)CN[C@H]1[C@H]2C [cyclopamine]
Pancreatic cancer [1]
  pancreatic cancer growth in vitro: inhibited pancreatic cancer growth
Pancreatic cancer [2]
  pancreatic cancer growth in vivo: inhibited pancreatic cancer growth
